# Antibody variant affinities, Ab-91 heavy chain, assay 2

Data: MIT Lincoln Laboratory AlphaSeq set, Engelhart et al. 2022, doi:10.1038/s41597-022-01779-4, as distributed in FLAb.

Antigen: PDVDLGDISGINAS, a 14-residue peptide of the SARS-CoV-2 spike HR2 region.

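The starting antibody came from a phage panning campaign against this peptide. Library AAYL51 holds single substitutions and randomly drawn double and triple substitutions in the CDRs. Affinity was read by AlphaSeq, a pooled yeast mating assay with surface-displayed partners. Binding brings cells together so that they mate, and sequencing counts the barcode pairs among the diploids. Scores were corrected for input abundance and mapped to Kd with protein pairs of known affinity run in the same pool. The assay was run in three technical replicates.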

Parent: Ab-91, a human scFv built as VL, a 15-residue (Gly4Ser)3 linker, VH. Only the CDRs of the heavy chain vary.
VL: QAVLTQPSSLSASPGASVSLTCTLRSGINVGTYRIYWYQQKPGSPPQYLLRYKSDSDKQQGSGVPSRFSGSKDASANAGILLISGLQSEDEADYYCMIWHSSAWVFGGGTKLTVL
VH: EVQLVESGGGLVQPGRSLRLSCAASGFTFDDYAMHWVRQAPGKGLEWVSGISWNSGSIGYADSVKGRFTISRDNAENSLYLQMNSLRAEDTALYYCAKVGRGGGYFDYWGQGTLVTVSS

Variants are written as CDR1, CDR2 and CDR3 of the heavy chain (limits as in the source). Parent: GFTFDDYAMH, GISWNSGSIGYADSVK, VGRGGGYFDY.
All variants listed here change D107 of the VH, counted from its first residue.
Each Kd is an estimate from the mating assay, the geometric mean of the replicates in which the pair was seen; lower is stronger.
"nd" means that the variant was in the library but no mating with the target was seen in any replicate; the authors take this as a sign of poor binding, and no number exists.
Parent in this assay: reference entry 72 nM, copy in this library 7.5 nM.

Variant GFTFDDYAMH / IISWNSGSIGYADSVK / VGEGGGYFIY gave nd (0 of 3 replicates). Variant VFTFDDYAMH / GISWNSGSIGYADSVK / VGRGGGKFSY showed nd (0 of 3 replicates). For GFTFDDYAMH / GISWNSRYIGYADSVK / VGRGGGYFNY, the assay gave 49 nM (3 of 3 replicates). Variant GFTFDDYAMH / GISWNSGSIGYADSVK / VGRGHGYLHY showed 3.8 nM (3 of 3 replicates). Variant GFTFDDHAMH / GISWNSVSIGYADSVK / VGRGGGYFVY gave nd (0 of 3 replicates). With GFTFDDYAMH / GISWNSGSIGLADSVV / VGRGGGYFSY the result was 6.5 µM (1 of 3 replicates).

With GGTFDDYAMH / GISWNSGSIGYADSVK / VGRGGGNFWY the result was 1.2 µM (1 of 3 replicates). Variant GFFFDDYAMH / GISWNSGSIGYADSVK / VGRGGGYFMY gave 82 µM (2 of 3 replicates). Variant GFTFDDYAMH / GISWWSGSIGYALSVK / VGRGGGYFQY gave nd (0 of 3 replicates). Variant GFTFDDYAMH / GISWDSGSIGYADSVK / VGRGGGYFCY gave 23 µM (1 of 3 replicates). Variant GFTFDDYASH / GISWNSGSIGYADSVK / VGRGGGYFLY showed nd (0 of 3 replicates). With GFTCDDYAMH / GILWNSGSIGYADSVK / VGRGGGYFCY the result was 210 µM (1 of 3 replicates).

Variant GKTFDDYAMH / GISRNSGSIGYADSVK / VGRGGGYFWY gave 4.2 µM (1 of 3 replicates). With GFDFEDYAMH / GISWNSGSIGYADSVK / VGRGGGYFWY the result was nd (0 of 3 replicates). Variant SFTFDDYAMH / GISWNSGSPGYADSVK / VGRGGGYFRY showed nd (0 of 3 replicates). With GFTFDDYALH / GISWNSGKIGYADSVK / VGRGGGYFWY the result was 57 µM (3 of 3 replicates). For GFTFDCYAMH / GISWNSGSIGYADSVR / VGRGGGYFMY, the assay gave 32 nM (3 of 3 replicates). Variant GFTFDDYAMH / GISWNSGSRGYADSVV / VGRGGGYFSY showed 560 µM (2 of 3 replicates).

Variant GFTFDDYARH / GISWNSGSIFYADSVK / VGRGGGYFKY gave nd (0 of 3 replicates). For GFTFDDYAMH / GISWNSGSIGYADHVK / YGRGGGYFAY, the assay gave 6.7 nM (3 of 3 replicates). Variant GFTFDDYAMH / DISWNSGSIGYWDSVK / VGRGGGYFFY showed 55 µM (2 of 3 replicates). With GFTFDDYAMH / GISWNSWSIGYADSVK / VGRGCGYFIY the result was nd (0 of 3 replicates). Variant GFTFDDMAMH / GISWNSGSIGYADWVK / VGRGGGYFMY showed nd (0 of 3 replicates). Variant GFTFEDYAMH / GISWNSGSIGYADSVK / VGRGGGLFGY gave 46 µM (1 of 3 replicates).

With GFTADDYAMH / GFSWNSGSIGYADSVK / VGRGGGYFSY the result was nd (0 of 3 replicates). For GYTFDDYAMH / GISWNSGSIGYATSVK / VGRGGGYFSY, the assay gave 16 µM (1 of 3 replicates). With GFTFDDVAMH / GISWNSGSIGYADSVK / VGRAGGYFGY the result was 13 µM (1 of 3 replicates). Variant GFTKDDYAMH / GISRNSGSIGYADSVK / VGRGGGYFGY showed 40 µM (1 of 3 replicates). For GFTMDDYAMH / GISWNSGSIGYADSVK / VARGGGYFGY, the assay gave 99 nM (3 of 3 replicates). Variant GFTADDYAMH / GISWNSGCIGYADSVK / VGRGGGYFEY showed nd (0 of 3 replicates).

With GFTFDDYAMH / GISWNSGSIGYADSVK / VGRGGGYFHY the result was 17 µM (1 of 3 replicates).

Top 4 of the variants detected in all replicates, tightest first:

| CDR-H1 | CDR-H2 | CDR-H3 | apparent Kd | replicates with signal |
|---|---|---|---|---|
| GFTFDDYAMH | GISWNSGSIGYADSVK | VGRGHGYLHY | 3.8 nM | 3/3 |
| GFTFDDYAMH | GISWNSGSIGYADHVK | YGRGGGYFAY | 6.7 nM | 3/3 |
| GFTFDCYAMH | GISWNSGSIGYADSVR | VGRGGGYFMY | 32 nM | 3/3 |
| GFTFDDYAMH | GISWNSRYIGYADSVK | VGRGGGYFNY | 49 nM | 3/3 |

As a blank, each scFv also met three strains without target: over library AAYL51, 21% of these pairings were detected, typically at 34 µM and seldom below 1.8 µM.